Source: US10809222B2, “Opioid detection based on high quality graphene transistor arrays and a synthetic mu receptor” (priority 2013, dated 2020)

Tested on: human μ opioid receptor expressed in HEK293 cells
Experiment: Competitive TR-FRET (HTRF) binding competition assay with native MUR and naltrexone-derived fluorescent antagonist
Details: negative control
Excerpt: FIG. 16. […] Data is used to calculate HTRF ratios, and represent the mean±standard error of mean of quadruplicates. ΔF is used for the comparison of different runs of the same assay which reflects the signal to background of the assay. ΔF=[(Ratiosample−Ratiobackgroud)/Ratiobackgroud](%).
A recently developed methodology which uses a fluorescently labeled ligand and the native MUR was used to investigate the ligand-binding capabilities of the water-soluble receptors.

HSA: human serum albumin, a soluble helical protein, negative control
change in the fluorescence ratio (665 nm/620 nm): no significant change
